{
  "source": "PubChem BioAssay (Tox21)",
  "note": "Values joined by “and” are separate entries in the source; they are usually repeats but may differ in a detail not shown here. Equal entries are not always repeated. The entries are a selection whose mix differs from that of the whole data set. Results filed as inconclusive are left out. Active and inactive are the calls of the source. Calls follow the shape of the dose curve; as a rule, active = well fitted curve in the direction sought with a large enough effect in the signal ratio in the repeat runs (not every such curve was filed as active); inconclusive = weak or mixed curves, or a change in a side signal; inactive = no such curve, though single readings can be large or run the other way; the % refers to the signal ratio. % is scaled to controls: 0 for no effect and ±100 for the full control effect.",
  "data": [
    {"assay": "qHTS assay to identify small molecule agonists of the NFkB signaling pathway (AID 1159509)", "conditions": "NFkB-bla ME-180 cells, beta-lactamase FRET ratio, 5 h; at 61 µM (top of the series)", "excerpt": "(§1) National Center for Advancing Translational Sciences [NCATS]\n(§2) NIH Chemical Genomics Center [NCGC]\n(§3) U.S. Environmental Protection Agency [EPA]\n(§4) National Institutes of Environmental Health Sciences [NIEHS]\n(§5) National Toxicology Program [NTP]\n(§6) U.S. Food and Drug Administration [FDA]\n(§7) Transcription factors and their stimulated target gene expression play pivotal roles across many cellular processes including responses to environmental stimuli. Proper regulation of associated pathways is critical to maintain cell health and function. Constitutive activation of transcription factor pathways has been implicated in tumors as it may block cellular functions such as apoptosis and lead to invasion and metastasis. One important transcription factor that stimulates gene expression in response to cytokines, UV radiation, and other stimuli is nuclear factor-kappa B (NFkB). To measure activation of the NFkB pathway, the CellSensor NFkB-bla ME-180 cell line (Life Technologies, Carlsbad, CA) that stably expresses beta-lactamase reporter gene under the regulation of a NF-kB response element was used. This assay allows measurement of the NFkB pathway activity induced by compounds in a ME-180 cell line. This system quantitates NF-kB activity using a FRET-based assay system where beta-lactamase expression disrupts FRET, allowing for fluorescent measurement of activity. This cell line has been used to screen the Tox21 10K compound library and to identify compounds that induce the NFkB pathway activity.\n(§8) Tox21 Assay Protocol Summary:\n(§9) NFkB-bla ME-180 cells were dispensed at 2,000 cells/6 uL of assay medium per well into black wall/clear-bottom 1536-well plates using a Multidrop Combi (ThermoFisher Scientific, Waltham, MA) dispenser. After the assay plates were incubated at 37 C and 5% CO2 for an overnight, 23 nL of compounds dissolved in DMSO, positive controls or DMSO only was transferred to the assay plate by a Pintool station (Kalypsys, San Diego, CA). The assay plates were incubated at 37 C and 5% CO2 for 5 hr. One uL of LiveBLAzer B/G FRET substrate (Life Technologies) was added using a Flying Reagent Dispenser (Aurora Discovery, San Diego, CA) and the plates were incubated at room temperature for 1.5 hr. Fluorescence intensity (405 nm excitation, 460 nm and 530 nm emissions) was measured using an Envision plate reader (PerkinElmer, Shelton, CT).", "values": [
      {"smiles": "O=[N+]([O-])OCC(CO[N+](=O)[O-])(CO[N+](=O)[O-])CO[N+](=O)[O-]", "activation": "inactive: -0.143%"},
      {"smiles": "COP(C)(=O)OC", "activation": "inactive: -0.173%"},
      {"smiles": "C/C1=C2N=C(/C=C3N=C(/C(C)=C4\\[N-][C@@](C)([C@@H]5N=C1[C@](C)(CCC(=O)NC[C@@H](C)OP(=O)([O-])O[C@H]1[C@@H](O)[C@@H](n6cnc7cc(C)c(C)cc76)O[C@@H]1CO)[C@H]5CC(N)=O)[C@@](C)(CC(N)=O)[C@@H]4CCC(N)=O)[C@@](C)(CC(N)=O)[C@@H]\\3CCC(N)=O)C(C)(C)[C@@H]/2CCC(N)=O.[C-]#N.[Co+3]", "activation": "inactive: -0.0846%"},
      {"smiles": "Cc1c([N+](=O)[O-])cccc1[N+](=O)[O-]", "activation": "inactive: -0.004% and inactive: -0.487%"},
      {"smiles": "CP(=O)(O)OCCC[Si](O)(O)O", "activation": "inactive: 0.0286%"},
      {"smiles": "OCCSCCO", "activation": "inactive: -0.55%"},
      {"smiles": "CC(C)N(CCO)C(C)C", "activation": "inactive: 0.379%"},
      {"smiles": "COc1ccc([N+](=O)[O-])cc1[N+](=O)[O-]", "activation": "inactive: -0.334%"},
      {"smiles": "Cc1ccc([N+](=O)[O-])cc1[N+](=O)[O-]", "activation": "inactive: -1.15% and inactive: -0.524%"},
      {"smiles": "CC(C)OP(C)(=O)OC(C)C", "activation": "inactive: -0.166% and inactive: -0.489%"},
      {"smiles": "CCOP(=O)(CC)OCC", "activation": "inactive: 0.143%"}
    ]},
    {"assay": "qHTS assay to identify small molecule agonists of the NFkB signaling pathway (AID 1159509)", "conditions": "NFkB-bla ME-180 cells, beta-lactamase FRET ratio, 5 h; at 78.8 µM (top of the series)", "excerpt": "as §1, §2, §3, §4, §5, §6, §7, §8, §9", "values": [
      {"smiles": "COP(C)(=O)OC", "activation": "inactive: -0.114%"},
      {"smiles": "Nc1cc([N+](=O)[O-])cc([N+](=O)[O-])c1O", "activation": "inactive: -0.243%"},
      {"smiles": "OCCSCCO", "activation": "inactive: -0.672%"},
      {"smiles": "N=C(N)N[N+](=O)[O-]", "activation": "inactive: 0%"}
    ]}
  ]
}
